Antibody variant affinities, Ab-14 heavy chain, assay B

Data: MIT Lincoln Laboratory AlphaSeq set, Li et al. 2023, doi:10.1038/s41467-023-39022-2, as distributed in FLAb.

The target is the same throughout: PDVDLGDISGINAS, from the HR2 region of SARS-CoV-2 spike.

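The starting antibody came from a phage panning campaign against this peptide. The variants were designed computationally from a first round of random CDR variants and then made and measured. Several design methods are mixed in this list. The assay is AlphaSeq: two haploid yeast populations carry antibody and antigen on their surface. Binding brings cells together so that they mate, and sequencing counts the barcode pairs among the diploids. A regression on co-assayed BCL2-family reference pairs converts the normalised counts of each replicate to an apparent Kd. The assay was run in six technical replicates.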

Parent scFv Ab-14: VH joined to VL by three GGGGS repeats. Changes lie in the heavy chain CDRs alone.
VH: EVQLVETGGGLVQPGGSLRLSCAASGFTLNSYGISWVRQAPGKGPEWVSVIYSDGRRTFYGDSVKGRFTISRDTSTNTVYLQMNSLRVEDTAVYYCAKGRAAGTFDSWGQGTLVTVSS
VL: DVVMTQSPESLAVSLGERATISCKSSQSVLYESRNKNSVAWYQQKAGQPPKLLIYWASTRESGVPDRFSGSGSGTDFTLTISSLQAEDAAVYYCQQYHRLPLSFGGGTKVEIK

Each variant is given by its three heavy chain CDRs, as the data file delimits them; those of the parent are GFTLNSYGIS, VIYSDGRRTFYGDSVK, GRAAGTFDS.
The read-out is the apparent dissociation constant on a log10 scale (nM): the lower, the stronger.
Replicates are averaged; those with no signal do not enter the mean.
Where no diploid with the target was found in any replicate, the entry reads "not detected": below detection, most likely a poor binder, though not proof of it.

mean log10 Kd (nM)	detected	CDR-H1	CDR-H2	CDR-H3
not detected	0 of 6	GFDLNSYGIS	VIYSDGRRTFYADSVK	GNAAGTFDS
-0.11	6 of 6	GFDLNEYGIS	VIYADGQRTFYADSVK	GNVAGTFFS
-0.11	12 of 12	GFELNSYGIS	VIYADGRRTFYGDSVK	GRAAGTFDS
0.81	6 of 6	GFGLDEYGIS	VIYADGKRTFYADSVK	GENAGTFLM
1.83	2 of 6	YFTLNDYGIS	VIYSDGRRTQYIDSVK	GRAAGTFDS
0.04	6 of 6	KFSLNEYGIS	VIYSDGRRTFYGDSVK	GKTAGTFDS
not detected	0 of 6	GFSLNDYGIS	VIYSDGRRTFYGDSVK	GRAALTFDN
0.43	6 of 6	GFDLNEYGIS	VIYADGRRTFYADSVK	GEEAGTFLV
-0.44	6 of 6	GFDLSEYGIS	VIYADGMRTAYADSVK	GNVAGTFDL
0.00	6 of 6	GFHLNSYGIS	VIYSDGRRTFYGDSVK	GNEAGTFDT
0.57	6 of 6	GFDIEEYGIS	VIYADGDRANYDQKVK	GTIAGTLVM
-0.33	6 of 6	GFDLNEYGIS	VIYADGMRKAYTDSVK	GNVAGTFDV
-0.54	6 of 6	GFDLNEYGIS	VIYADGRRTFYVDSVK	GNNAGTFDS
not detected	0 of 6	GFDLNSYGIS	VINSDGRRTFAGDSVK	GRAAIWFIS
1.19	6 of 6	GFDLNSYGIS	VIYSDGMRTFYSDSVK	GRQAGTFDS
0.70	2 of 6	GFWLNSYGIS	VIYADGRRTFYGDSVK	GWAAGTFDS
not detected	0 of 6	GFDLNSYGIS	VIYSDGRRTFYGDSVK	RRAFGTFDS
-0.06	6 of 6	GFDLNEYGIS	VIYADGRRTAYIDSVK	GHAAGTFDF
not detected	0 of 6	GSDLEEYGIS	VIYADGMRKQYTNSVK	GEDSVTTFT
-0.80	6 of 6	GFDLNEYGIS	VIYADGVRTYYADSVK	GNNAGTFDI
0.52	3 of 6	GFDLNEYGIS	VIYADGVRTAYADSVK	GGNAGTFDI
-0.57	6 of 6	GFDLNEYGIS	VIYADGMRTAYTDSVK	GNQAGTFDI
-1.28	6 of 6	GFNLNEYGIS	VIYADGKRTFYADSVK	GEHAGTFDI
0.56	6 of 6	GFDLNSYGIS	VIYSDGRRTFYGDQVK	GREAGTFDN
2.10	3 of 6	GFPLNSYGIS	VIYSDGRRTFYGDSVK	GRAPGTFDS
-0.36	6 of 6	GFDLNEYGIS	VIYADGMRTAYTDSVK	GNTAGTFDQ
not detected	0 of 6	GFNLNSYGIS	VIYSDGRRTFYGDSVK	GRQAGRFDL
-0.28	6 of 6	GFDLNEYGIS	VIYADGKRTAYVDSVK	GENAGTFDL
-0.20	6 of 6	GFDLNEYGIS	VIYADGMRTSYADSVK	GEVAGTFDI
1.11	6 of 6	GFGLNEYGIS	VIYSDGRRTFYKDSVK	GKAAGTFDT
-0.14	6 of 6	GFDLNEYGIS	VIYADGMRSAYADSVK	GNQAGTFDV
-0.44	6 of 6	GFDLNEYGIS	VIYADGKRTAYADSVK	GSNAGTFDT
1.54	2 of 6	GFTLNSYGIS	VIYSDGRRTFYGDSVK	GRAALWFDS
not detected	0 of 6	GFDLDEYGVS	VIYADGIRCTYADAVK	GKHGGAIFV
not detected	0 of 6	GFSLDEFGIS	VIYADGKRTFYTDNVK	GINVVALVI
-0.47	6 of 6	GFTLDSYGIS	VIYADGRRTFYGDSVK	GRTAGTFDS
not detected	0 of 6	GFTLNSYGIS	VIYADGRRTFYGDSVK	GRLAGTFMI
0.23	6 of 6	GFDLDEYGIS	VIYADGKRTAYADSVK	GGNAGTFDM
1.66	1 of 6	GFDLNSYGIS	VIYSDGRRTFYMDSVK	GRAAVTFDS
-0.94	6 of 6	GFDLNEYGIS	VIYADGMRTAYSDSVK	GEAAGTFDV
1.96	1 of 6	GVGLNEYGIS	VIYSDGRRTFYGDSVK	GRAAGAFDS
0.79	6 of 6	GFSLNNYGIS	VIYSDGRRTFYGDSVK	GRAAGTFDT
0.12	6 of 6	GADLNEYGIS	VIYADGSRTVYADTVK	GKHGGMFDS
0.62	6 of 6	GFTLNEYGIS	VIYSDGRRTFYKDSVK	GRAAGTFDL
-0.18	6 of 6	GFKLNQYGIS	VIYSDGRRTFYSDSVK	GRQAGTFDS
-0.18	6 of 6	GFDLNDYGIS	VIYADGRRTAYIDSVK	GEVAGTFDM
not detected	0 of 6	GFDLDQYGIS	VIYADGIRSVYADAVK	GHEGGILYV
-0.19	6 of 6	GFDLNEYGIS	VIYADGVRTVYADSVK	GENAGTFDL
3.11	4 of 6	KFSLNSYGIS	VIYSDGRRTFYADSVK	GQAAGTFDT
0.29	6 of 6	GFTLNEYGIS	VIYSDGRRTFYTDSVK	GRLAGTFDK
-0.39	6 of 6	GFDLDEYGIS	VIYADGRRTFYTDSVK	GNVAGTFDV
0.21	6 of 6	GFDLNSYGIS	VIYSDGRRTFYGDSVK	GNAAGTFDK
0.84	6 of 6	GFSLENYGIS	VIYSDGRRTFYGDQVK	GRTAGTFDS
not detected	0 of 6	GFSLNDYGIS	VIYSDGRRTFYGDSVK	GRAAGTFFS
not detected	0 of 6	GFDLGEYGIS	VIYADGVRTSYADKVK	GKNGAISSV

Again, the first 9 entries without any signal:

{"CDR-H1": "GFDLNSYGIS", "CDR-H2": "VIYSDGRRTFYADSVK", "CDR-H3": "GNAAGTFDS", "mean log10 Kd (nM)": "not detected", "detected": "0 of 6"}
{"CDR-H1": "GFSLNDYGIS", "CDR-H2": "VIYSDGRRTFYGDSVK", "CDR-H3": "GRAALTFDN", "mean log10 Kd (nM)": "not detected", "detected": "0 of 6"}
{"CDR-H1": "GFDLNSYGIS", "CDR-H2": "VINSDGRRTFAGDSVK", "CDR-H3": "GRAAIWFIS", "mean log10 Kd (nM)": "not detected", "detected": "0 of 6"}
{"CDR-H1": "GFDLNSYGIS", "CDR-H2": "VIYSDGRRTFYGDSVK", "CDR-H3": "RRAFGTFDS", "mean log10 Kd (nM)": "not detected", "detected": "0 of 6"}
{"CDR-H1": "GSDLEEYGIS", "CDR-H2": "VIYADGMRKQYTNSVK", "CDR-H3": "GEDSVTTFT", "mean log10 Kd (nM)": "not detected", "detected": "0 of 6"}
{"CDR-H1": "GFNLNSYGIS", "CDR-H2": "VIYSDGRRTFYGDSVK", "CDR-H3": "GRQAGRFDL", "mean log10 Kd (nM)": "not detected", "detected": "0 of 6"}
{"CDR-H1": "GFDLDEYGVS", "CDR-H2": "VIYADGIRCTYADAVK", "CDR-H3": "GKHGGAIFV", "mean log10 Kd (nM)": "not detected", "detected": "0 of 6"}
{"CDR-H1": "GFSLDEFGIS", "CDR-H2": "VIYADGKRTFYTDNVK", "CDR-H3": "GINVVALVI", "mean log10 Kd (nM)": "not detected", "detected": "0 of 6"}
{"CDR-H1": "GFTLNSYGIS", "CDR-H2": "VIYADGRRTFYGDSVK", "CDR-H3": "GRLAGTFMI", "mean log10 Kd (nM)": "not detected", "detected": "0 of 6"}

The parent sequence was in this pool as ten entries: three were never detected, three once, and four in most replicates, with averages from 0.34 to 2.37.
Background: pairings of all heavy chain designs with three empty control strains gave a value in 1% of cases (median 2.08, 5th percentile 0.84). Values in that range, when seen in few replicates, are hard to tell from nonspecific mating.
Values of this round are not directly comparable with the first-round values of the same sequences.
The authors' rule: three or more of the six replicates give a measured affinity, fewer mean a poor binder.
Some sequences occur more than once in the pool; their replicates are pooled.